Compound activity: PubChem, National Center for Advancing Translational Sciences (NCATS)
Nrf2 block = blocks Nrf2 signaling. AID 504444. 2.1% of 360,000 active. Potency, µM (highest dose often 46 µM), without a hit: at the highest dose activity change, negative = inhibition, hits mostly inhibitors. A549 ARE-Fluc reporter, luciferase luminescence, 18-24 h; also: potency is read from the fitted curve at half-maximal effect; % is scaled to controls: 0 for no effect and ±100 for the full control effect; nearly all actives have a fitted effect of over 60% in size
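Reporter: ARE-Fluc in A549. Exposure: 18-24 h, 37 °C, 5% CO2, 5% FBS OPTI-MEM. Readouts: fluorescent cytotoxicity (CellTiter-Fluor), then luminescent Nrf2 signal after BugLite.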
A549 tox = A549 cytotoxicity, counter-screen for Nrf2 inhibitors | A549 ARE-Fluc cells, CellTiter-Fluor viability, 18-24 h | Potency, µM (doses to about 46 µM), without a hit: top-dose activity change, negative = cytotoxicity, actives largely listed as inhibitors | 0.16% of 390,000 active | AID 504648; also: potency is read from the fitted curve at half-maximal effect; % is scaled to controls: 0 for no effect and ±100 for the full control effect
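Cytotoxicity counterscreen: CellTiter-Fluor fluorescence was measured in A549 ARE_Fluc cells after 18-24 h of compound exposure in a concentration series. The subsequent BugLite luminescent read reports ARE-luciferase activity.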
Nrf2 ARE act = activators of Nrf2 (ARE) signaling. 0.31% of 410,000 active. Potency, µM (titrated, usually from 46.1 µM), for the others: top-dose activation, usual class: activators. AID 624171. AREc32 ARE-luciferase reporter (MCF7-derived line), luminescence, 24 h; also: potency is read from the fitted curve at half-maximal effect; % of control where 0% means no effect; nearly all actives have a fitted effect of over 65% in size
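Luminescent ARE reporter assay in AREc32_Fluc cells: overnight plating at 37 deg C, 24 hr compound incubation, Steady-Glo added, 30 min RT before reading.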
PI4K2A block = blocks human PI4K2A kinase activity; Q9BTU6; purified PI4K2A, ADP-Glo luminescence, 1 h; stronger effect = lower value; activity change, negative = inhibition, % at 76.9 µM; 0.13% of 420,000 active; AID 1346378; in the data active = activity change below about -50%; inconclusive = mostly about -30% to -49%;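 also: -100% = wells without enzyme as full effect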
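Compounds are screened against recombinant PI4K2A using PI as substrate and ATP, the latter dispensed at 300 microM. Reactions run one hour at ambient temperature before ADP-Glo detection; full inhibition defined by wells lacking enzyme.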
GALK inhibitor = inhibitors of human galactokinase | P51570 | Potency, µM (highest dose often 57.5 µM), for the others: at the highest dose activity change, negative = inhibition, most hits filed as inhibitors | 0.007% of 270,000 active | Purified GALK, Kinase-Glo residual ATP luminescence | AID 1868; also: potency is read from the fitted curve at half-maximal effect; % is scaled to controls: 0 for no effect and ±100 for the full control effect
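ATP-depletion format; final 35 uM ATP, 100 uM D-galactose, 5 nM enzyme; pH 8.0 HEPES/Mg2+ buffer; 60 min RT; luminescence read 10 min after detection reagent.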
miR-21 reporter = miR-21 reporter, rising signal; HeLa miR-21 FLuc reporter, luciferase, 48 h; Potency, µM (highest dose often 38.3 µM), for the others: top-dose reporter change, positive = more light; 340,000 tested, under 10 active; AID 2288; active = well fitted rising curve with a large enough effect; inconclusive = small, poorly fitted or top-dose-only effect; inactive = no such curve, though single readings can be large or run the other way;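 further: % of control where 0% means no effect; miR-21 action dims this reporter so a rising signal means less miR-21 action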
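Compounds were titrated across several concentrations (up to approximately 40 uM) and incubated 48 hours with HeLa miR-21-FLuc reporter cells (miR-21 target sequence downstream of FLuc, endogenous miR-21). Readout was firefly luciferase luminescence after lytic detection reagent.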
* hit, by the source's call; ? = inconclusive; . = no result given; [ ] = dose if it differs, or a comment. Most compounds without a hit are left out; they make up all but 2.2% or so of the library. Unless noted, calls follow the shape of the dose curve; as a rule, active = well fitted curve in the direction sought with a large enough effect; inconclusive = small, poorly fitted or top-dose-only effect, or another doubt; inactive = no such curve, though single readings can be large; an effect the other way counts as inactive or inconclusive.

Preview (3 entries):
1: Cc1nc2sc(-c3ccccc3)cc2c(=O)n1-n1cccc1
2: Cc1cccc(NC(=O)Cn2nnc(-c3ccccc3F)n2)c1C
3: Nc1ccc(-c2nc3ccccc3s2)cn1

Assay by compound	1	2	3
Nrf2 block	23.1%	.	?
A549 tox	1.2%	.	-6.3%
Nrf2 ARE act	3.5%	.	13.0%
PI4K2A block	-1.5	-0.4	3.1
GALK inhibitor	0.4%	.	6.6%
miR-21 reporter	-58.3%	.	-62.2%

The list itself, from the first entry:
1: Cc1nc2sc(-c3ccccc3)cc2c(=O)n1-n1cccc1
2: Cc1cccc(NC(=O)Cn2nnc(-c3ccccc3F)n2)c1C
3: Nc1ccc(-c2nc3ccccc3s2)cn1
4: Brc1ccc(-c2nc3ccccc3s2)s1
5: CC(C)(CNc1ccc(S(=O)(=O)C(F)(F)F)cc1[N+](=O)[O-])N1CCOCC1

Assay by compound	1	2	3	4	5
Nrf2 block	23.1%	.	?	?	23.1µM*
A549 tox	1.2%	.	-6.3%	4.6%	1.5%
Nrf2 ARE act	3.5%	.	13.0%	11.2µM*	-0.8%
PI4K2A block	-1.5	-0.4	3.1	-14.9	1.5
GALK inhibitor	0.4%	.	6.6%	6.8%	0.6%
miR-21 reporter	-58.3%	.	-62.2%	-43.1%	-18.8%

6: CC(C)(CNc1ccc([N+](=O)[O-])cc1C#N)N1CCOCC1
7: O=[N+]([O-])c1cccc(S(=O)(=O)N2CCN(c3nc(-c4cccs4)nc4ccccc34)CC2)c1
8: CCOC(=O)c1cccc(NC(=O)c2ccc(NC(=O)C3CCCO3)cc2)c1 (stereo not drawn)
9: COc1ccc(-c2nnc(C)c3nocc23)cc1
10: Brc1ccc(-c2nnc(-c3cccnc3)c3conc23)cc1

Assay by compound	6	7	8	9	10
Nrf2 block	-5.2%	0.0%	11.6µM*	1.4%	20.0%
A549 tox	-17.5%	0.2%	-28.9%	-2.5%	-1.9%
Nrf2 ARE act	-0.2%	.	0.5%	0.4%	7.08µM*
PI4K2A block	-3.2	.	-1.7	?	1.7
GALK inhibitor	1.7%	.	-0.4%	3.0%	.
miR-21 reporter	-2.9%	.	1.7%	-0.6%	.

11: O=C1c2cccc3c([N+](=O)[O-])ccc(c23)C(=O)N1O
12: O=C(OCCN1CCN(C2CN(Cc3cn(Cc4ccccc4Cl)nn3)S(=O)(=O)C2)CC1)c1cc2ccccc2o1 (stereo not drawn)
13: CC(=O)c1cccc(NS(=O)(=O)c2ccc(N/C=C\C(=O)c3ccc(F)cc3)cc2)c1
14: COc1cc(NS(=O)(=O)c2ccc(N)cc2)nc(C)n1
15: Cc1cc(NC(=O)c2c(F)cccc2F)n(-c2nc3ccccc3[nH]2)n1

Assay by compound	11	12	13	14	15
Nrf2 block	?	.	25.9µM*	.	?
A549 tox	-13.3%	.	?	.	?
Nrf2 ARE act	12.6µM*	.	4.6%	.	-1.6%
PI4K2A block	-15.3	2.1	2.4	-0.9	0.5
GALK inhibitor	1.2%	.	-2.6%	.	-2.4%
miR-21 reporter	5.6%	.	25.2%	.	-1.0%

16: Cc1cc(Nc2ccccc2)n(-c2nc3ccccc3[nH]2)n1
17: Cc1nn(-c2nc3ccccc3[nH]2)c(=O)c2ccccc12
18: Cc1cc(NC(=O)c2c(F)cccc2Cl)n(-c2nc3ccccc3[nH]2)n1
19: Cc1nn(-c2ccc3ccccc3c2)c(=O)c2ccccc12
20: COc1ccc(S[C@]2(C(=O)N3CCCC3)CC(=O)N(c3ccccc3OC)[C@@H]2c2ccc(OC)cc2)cc1

Assay by compound	16	17	18	19	20
Nrf2 block	16.4µM*	1.3µM*	14.6µM*	?	.
A549 tox	-8.0%	-4.2%	-18.4%	-19.9%	.
Nrf2 ARE act	10.1%	-2.0%[9.22 µM]	-1.5%	?	.
PI4K2A block	6.7	-81.4*	2.6	-2.6	-5.6
GALK inhibitor	-0.3%	?	-3.1%	-1.9%	.
miR-21 reporter	19.9%	?	6.6%	-64.9%	.

21: O=[N+]([O-])c1cccc(-c2nc(-c3ccncc3)no2)c1
22: O=[N+]([O-])c1cccc(-c2nc(-c3ccccc3)no2)c1
23: O=[N+]([O-])c1cccc(-c2noc(-c3ccco3)n2)c1
24: COC(=O)C[C@H]1CC[C@H]2[C@H](COc3ccc(NC(=O)Nc4ccccc4F)cc3C(=O)N2C)O1
25: COc1cccc(C2c3c(ncn(-c4cccc(C#N)c4)c3=N)Oc3ccc4ccccc4c32)c1 (stereo not drawn)
26: Cc1ccc(NC(=O)c2cc3c(s2)CCCC3)cc1S(=O)(=O)Nc1ccccc1Cl
27: Cc1ccc(C(=O)Nc2ccc(C)c(S(=O)(=O)Nc3ccccc3Cl)c2)s1
28: O=C(Nc1cccc(S(=O)(=O)Nc2ccc(Cl)cc2)c1)c1cc2c(s1)CCCC2

Assay by compound	21	22	23	24	25	26	27	28
Nrf2 block	.	?	?	.	?	7.31µM*	?	23.1µM*
A549 tox	-2.4%	14.8%	17.7%	.	-0.7%	-19.6%	1.4%	?
Nrf2 ARE act	13.8%	3.98µM*	7.08µM*	.	.	3.0%	3.3%	8.0%
PI4K2A block	0.4	-1.3	1.3	-3.3	.	1.0	1.8	-4.8
GALK inhibitor	-1.6%	5.7%	9.8%	.	.	-0.1%	-1.5%	-2.1%
miR-21 reporter	-19.7%	-11.0%	-36.3%	.	.	17.2%	17.9%	28.0%
